In patent US10544444B2, “Compositions for in situ labeling of bacterial cell walls with fluorophores and methods of use thereof” (priority 2012, dated 2020):

Assays:
Escherichia coli = experiment: PG labeling of live E. coli, fluorescence microscopy; format: cell-based; settings: captured by azido/alkyne fluorophores
Bacillus subtilis = experiment: PG labeling of live B. subtilis, fluorescence microscopy; format: cell-based; settings: captured by azido/alkyne fluorophores

SMILES: C[C@@H](NN=[N+]=[N-])C(=O)O
- labeling of E. coli after click capture (Escherichia coli): labeled both E. coli and B. subtilis
- labeling of B. subtilis after click capture (Bacillus subtilis): labeled both E. coli and B. subtilis
